Reference: patent US20260384421A1, “NOVEL COMPOUNDS THAT CAN BE USED AS THERAPEUTIC AGENTS” (published 2026)

Columns and labels:
C2C12 cells = assay: alamarBlue proliferation assay with C2C12 cells; conditions: read-out: Activity on C2C12: IC50; C2C12 murine myoblast cells, RPMI 1640 medium, 10% FBS
Description: (§1) These hyperproliferative processes can be benign or malignant and include hyperplasia, neoplasia, cancer and pre-cancerous lesions, and metastases. The antiproliferative activities of compounds falling under general formula (I) were investigated on human primary epidermal keratinocytes (HPEK) and human, murine and canine cell lines derived from hyperproliferative tissue or different cancer types, including MDA-MB-231, ZR-75-30, HCC-1395, HCC-1937, and T-47D all originating from cancer of the breast, JURKAT, RPMI-8402, LOUCY, TANQUE, REC-1, HL-60, NB-4 all originating from different types of blood cancer including lymphoma and leukemia of T-cells, B-cells and myeloid cells, TT originating from cancer of the neuroendocrine system, HeLa originating from cancer of the cervix, 23132/87, SW-948, and HCT-116 all originating from cancer of the gastrointestinal tract including stomach and colon, BHY originating from cancer of the mucosal epithelium, A-431 originating from cancer of the skin, HEP-G2 originating from cancer of the liver, NCI-H460 and A-549 both originating from cancer of the lung, PANC-1 originating from cancer of the pancreas, U-87 MG originating from cancer of the brain, A-375 and RVH-421 both originating from cancer of melanocytes, SW-1353 originating from cancer of bone-derived chondrocytes, C2C12 a mouse cell line originating from hyperproliferative muscle progenitor cells, LL/2 a mouse cell line originating from cancer of the lung, CF21.T a dog cell line originating from cancer of the connective tissue. To this end, according cells were seeded into 96-well plates (CORNING #3598) suitable for fluorescence assays at following initial cell numbers: 1000 cells per well for HPEK; 3000 cells per well for MDA-MB-231, 8000 cells per well for ZR-75-30, 1500 cells per well for HCC-1395, 1500 cells per well for HCC-1937, 3000 cells per well for T-47D, 1500 cells per well for JURKAT, 5000 cells per well for RPMI-8402, 9000 cells per well for LOUCY, 1500 cells per well for TANQUE, 9000 cells per well for REC-1, 1000 cells per well for HL-60, 1000 cells per well for NB-4, 9000 cells per well for TT, 2000 cells per well for HeLa, 2000 cells per well for 23132/87, 9000 cells per well for SW-948, 700 cells per well for HCT-116, 1500 cells per well for BHY, 700 cells per well for A-431, 1500 cells per well for HEP-G2, 500 cells per well for NCI-H460, 1000 cells per well for A-549, 1500 cells per well for PANC-1, 2500 cells per well for U-87 MG, 700 cells per well for A-375, 1500 cells per well for RVH-421, 2000 cells per well for SW-1353, 500 cells per well for C2C12, 500 cells per well for LL/2, and 3000 cells per well for CF21.T. In a volume of 90 μL per well of culture medium the cells were treated with compounds at indicated final concentrations by adding 10 μL per well of 10× compound working solutions from 1:100 pre-diluted 1000× compound DMSO stock-solutions in H2O (Water For Injection, WFI, Fisher Scientific, Gibco™ #A12873) or with the empty carrier DMSO (AppliChem, #A3672) at 0.1% v/v as control yielding a final volume of 100 μL per well. At day 5 after starting the treatments the cells were subjected to the alamarBlue® Proliferation Assay (Bio-Rad Serotec GmbH, BUF012B) according to the protocol of the manufacturer. The readout was taken with a multi-well plate-reader (Tecan Spark®) in the fluorescence mode with applying a filter for excitation at 560 nm (band width 10 nm) and for emission at 590 nm (band width 10 nm). Treatment for maximum proliferation inhibition with the commercial cytotoxic compound (S)-(+)-camptothecin (Fluorochem #M01564) at a concentration of 10 μM was included on each plate for assay quality control. Some of the test compounds of the present invention may have been obtained and applied as their salt forms.
(§2) The assays were performed in duplicate or more replicates of independent single experiments each containing a three- to six-fold replicate for every condition. […]

MDA-MB-231 cells = assay: alamarBlue proliferation assay with MDA-MB-231 cells (glucose-free Leibovitz's L-15 medium)
HPEKp cells = assay: proliferation assay with human epidermal keratinocyte progenitors (HPEKp), selectivity versus MDA-MB-231; conditions: read-out: Activity (HPEK): antiproliferative activity on HPEK cells, IC50 category; HPEK cells cultivated in CnT-Prime medium
JURKAT cells = assay: alamarBlue proliferation assay with JURKAT cells; conditions: read-out: Activity on JURKAT (IC50), day 5
Description: as §1, §2

RVH-421 cells = assay: alamarBlue proliferation assay with RVH-421 cells (glucose-free L-15 medium); conditions: read-out: Activity on RVH-421: IC50, Leibovitz's L-15 medium, 10% FBS, 0% CO2
NCI-H460 cells = assay: alamarBlue proliferation assay with NCI-H460 cells; conditions: read-out: Activity on NCI-H460: IC50, RPMI 1640 medium, 10% FBS
HCT-116 cells = assay: alamarBlue proliferation assay with HCT-116 cells; conditions: read-out: Activity on HCT-116: IC50, McCoy's 5A medium, 10% FBS
NB-4 cells = assay: alamarBlue proliferation assay with NB-4 cells; conditions: read-out: Activity on NB-4: IC50, RPMI 1640 medium, 10% FBS
TANQUE cells = assay: alamarBlue proliferation assay with TANQUE cells; conditions: read-out: Activity on TANOUE: IC50, RPMI 1640 medium, 10% FBS
SW-948 cells = assay: alamarBlue proliferation assay with SW-948 cells (glucose-free L-15 medium); conditions: read-out: Activity on SW-948: IC50, Leibovitz's L-15 medium, 10% FBS, 0% CO2
Description: as §1, §2

HL-60 cells = assay: alamarBlue proliferation assay with HL-60 cells; conditions: read-out: Activity on HL-60: IC50, RPMI 1640 medium, 10% FBS
Description: as §1, §2

A-549 cells = assay: alamarBlue proliferation assay with A-549 cells; conditions: read-out: Activity on A-549: IC50, DMEM medium, 10% FBS
SW-1353 cells = assay: alamarBlue proliferation assay with SW-1353 cells (glucose-free L-15 medium); conditions: read-out: Activity on SW-1353: IC50, Leibovitz's L-15 medium, 10% FBS, 0% CO2
Description: as §1, §2

[1] = test system: mitochondrial transmembrane potential Δψm in A-549 cells; assay: mitochondrial activity assay (TMRE staining, mitochondrial transmembrane potential) on A-549 cells; conditions: A-549 cells, compounds at 10 μM, 2 h 40 min, TMRE staining, relative to DMSO = 1.0
[2] = read-out: Activity on MDA-MB-231 (IC50), glucose-free Leibovitz's L-15, 10% FBS, day 5, alamarBlue
[3] = read-out: Activity (MDA): antiproliferative activity on MDA-MB-231 cells, IC50 category, MDA-MB-231 cells cultivated in glucose-free Leibovitz's L-15 medium

Compound | IC50 (C2C12 cells) [µM] | IC50 (MDA-MB-231 cells; [2]) [µM] | IC50 (HPEKp cells) [µM] | IC50 (JURKAT cells) [µM] | IC50 (RVH-421 cells) [µM] | IC50 (NCI-H460 cells) [µM] | IC50 (MDA-MB-231 cells; [3]) [µM] | IC50 (HCT-116 cells) [µM] | IC50 (NB-4 cells) [µM] | IC50 (TANQUE cells) [µM] | IC50 (SW-948 cells) [µM] | IC50 (HL-60 cells) [µM] | IC50 (A-549 cells) [µM] | IC50 (SW-1353 cells) [µM] | Activity: relative mitochondrial transmembrane potential Δψm [1]
CS(=O)(=O)c1ccc(CN2CCN(C(=O)c3ccc(Oc4ccc(C5CCC6(CC5)OCCO6)cc4C=O)cc3)CC2)cc1 | ≤ 0.2 | ≤ 0.2 |  |  |  |  |  |  |  |  |  |  |  |  | 
O=Cc1cc(C2CCC3(CC2)OCCO3)ccc1Oc1ccc(C(=O)N2CCCN(Cc3ccccc3)CC2)cc1 | ≤ 5 | ≤ 1 |  |  |  |  |  |  |  |  |  |  |  |  | 
O=Cc1cc(C2CCC3(CC2)OCCO3)ccc1Oc1ccc(C(=O)N2CCN(Cc3ccc(C(F)(F)F)nc3)CC2)cc1 | ≤ 5 | ≤ 0.2 |  |  |  |  |  |  |  |  |  |  |  |  | 
O=C(c1ccc(Nc2ccc(C3CCC4(CC3)OCCO4)cc2)cc1)N1CCN(Cc2ccccc2)CC1 |  | ≤ 5 | < 10 | ≤ 20 | ≤ 5 | ≤ 20 | < 5 | ≤ 5 | ≤ 5 | ≤ 5 | ≤ 20 | ≤ 20 |  |  | 
O=Cc1cc(C2CCC3(CC2)OCCO3)ccc1Oc1ccc(C(=O)N2CCN(Cc3ccc(Cl)cn3)CC2)cc1 | ≤ 5 | ≤ 0.2 |  |  |  |  |  |  |  |  |  |  |  |  | 
O=C(c1ccc(Oc2ccc(C3CCC4(CC3)OCCO4)cc2CO)cc1)N1CCN(Cc2ccc3ccccc3n2)CC1 |  | ≤ 0.2 |  | ≤ 20 | ≤ 0.2 | ≤ 0.2 |  |  |  |  | ≤ 1 | ≤ 5 | ≤ 0.2 | ≤ 0.2 | 
COc1cc(CN2CCN(C(=O)c3ccc(Oc4ccc(C5CCC6(CC5)OCCO6)cc4CO)cc3)CC2)cc(OC)c1 |  | ≤ 1 | < 5 | ≤ 20 | ≤ 1 | ≤ 5 | < 1 |  |  |  | ≤ 5 | ≤ 5 | ≤ 5 | ≤ 1 | 
COc1cccc(CN2CCN(C(=O)c3ccc(Oc4ccc(C5CCC6(CC5)OCCO6)cc4C=O)cc3)CC2)c1 | ≤ 5 | ≤ 1 |  |  |  |  |  |  |  |  |  |  |  |  | 
Cn1c(CN2CCN(C(=O)c3ccc(Oc4ccc(C5CCC6(CC5)OCCO6)cc4C=O)cc3)CC2)cc2ccccc21 | ≤ 1 | ≤ 0.2 |  |  |  |  |  |  |  |  |  |  |  |  | 
CC(c1ccccc1)N1CCN(C(=O)c2ccc(Oc3ccc(C4CCC5(CC4)OCCO5)cc3C=O)cc2)CC1 (stereo not drawn) |  | ≤ 0.2 |  | ≤ 5 | ≤ 1 | ≤ 5 |  |  |  |  | ≤ 5 | ≤ 5 |  |  | 
COc1ccc(CN2CCN(C(=O)c3ccc(Oc4ccc(C5CCC6(CC5)OCCO6)cc4C=O)cc3)CC2)cn1 | ≤ 5 | ≤ 0.2 |  |  |  |  |  |  |  |  |  |  |  |  | 
O=Cc1cc(C2CCC3(CCCO3)CC2)ccc1Oc1ccc(C(=O)N2CCN(Cc3ccccc3)CC2)cc1 (stereo not drawn) |  | ≤ 0.2 |  | ≤ 5 | ≤ 0.2 | ≤ 5 |  |  |  |  | ≤ 1 | ≤ 5 |  |  | 
O=Cc1cc(C2CCC3(CC2)OCCO3)ccc1Oc1ccc(C(=O)N2CCN(Cc3nccs3)CC2)cc1 |  | ≤ 1 |  | ≤ 1 | ≤ 1 | ≤ 5 |  |  |  |  | ≤ 5 | ≤ 5 |  |  | 
CC(c1ccccc1)N1CCN(C(=O)c2ccc(Oc3ccc(C4CCC5(CC4)OCCO5)cc3CO)cc2)CC1 (stereo not drawn) |  | ≤ 0.2 |  | ≤ 20 | ≤ 1 | ≤ 5 |  |  |  |  | ≤ 5 | ≤ 5 | ≤ 0.2 | ≤ 0.2 | Δψm ≤0.7
O=C(c1ccc(Oc2ccc(C3CCC4(CC3)OCCO4)cc2CO)cc1)N1CCN(Cc2cnc3ccccc3c2)CC1 |  | ≤ 0.2 | < 10 | ≤ 20 | ≤ 0.2 | ≤ 0.2 | < 1 |  |  |  | ≤ 1 | ≤ 5 | ≤ 0.2 | ≤ 0.2 | 
O=Cc1cc(C2CCC3(CC2)OCCO3)ccc1Oc1ccc(C(=O)N2CC3CC2CN3Cc2ccccc2)cc1 (stereo not drawn) |  | ≤ 5 |  | ≤ 5 | ≤ 5 | ≤ 5 |  |  |  |  | ≤ 5 | ≤ 5 |  |  | 
O=Cc1cc(C2CCC3(CC2)OCCO3)ccc1Oc1ccc(C(=O)N2CCN(Cc3ccc(C(F)(F)F)cn3)CC2)cc1 | ≤ 5 | ≤ 1 |  |  |  |  |  |  |  |  |  |  |  |  | 
O=Cc1cc(C2CCC3(CC2)OCCO3)ccc1Oc1ccc(C(=O)N2CCN(Cc3ccsc3)CC2)cc1 |  | ≤ 0.2 |  | ≤ 5 | ≤ 0.2 | ≤ 5 |  |  |  |  | ≤ 5 | ≤ 5 |  |  | 
O=C(c1ccc(Oc2ccc(C3CCC4(CC3)OCCO4)cc2CO)cc1)N1CCN(c2ccccc2)CC1 |  | ≤ 5 | > 10 | ≤ 20 | ≤ 5 | ≤ 20 | < 1 |  |  |  | ≤ 20 | ≤ 20 |  |  | 
O=Cc1cc(C2CCC3(CC2)OCCO3)ccc1Oc1ccc(C(=O)N2CCN(c3ccc(O)cc3)CC2)cc1 |  | ≤ 1 |  | ≤ 5 | ≤ 1 | ≤ 5 |  |  |  |  | ≤ 5 | ≤ 5 |  |  | 
O=Cc1cc(C2CCC3(CC2)OCCO3)ccc1Oc1ccc(C(=O)N2CCN(Cc3ccc4oc(=O)ccc4c3)CC2)cc1 |  | ≤ 0.2 |  | ≤ 5 | ≤ 0.2 | ≤ 5 |  |  |  |  | ≤ 0.2 | ≤ 5 |  |  | 
O=Cc1cc(C2CCC3(CC2)OCCO3)ccc1Oc1ccc(C(=O)N2CCN(Cc3cccs3)CC2)cc1 |  | ≤ 0.2 |  | ≤ 5 | ≤ 1 | ≤ 5 |  |  |  |  | ≤ 5 | ≤ 5 |  |  | 
O=Cc1cc(C2CCC3(CC2)OCCO3)ccc1Oc1ccc(C(=O)N2CCN(c3ccc(Cl)cc3)CC2)cc1 |  | ≤ 5 |  | ≤ 5 | ≤ 5 | ≤ 5 |  |  |  |  | ≤ 20 | ≤ 5 |  |  | 

Like-named read-outs stand apart in the source and are kept apart here.
